# Ab-14 light chain CDR variants: yeast mating affinities

Data: MIT Lincoln Laboratory AlphaSeq set, Li et al. 2023, doi:10.1038/s41467-023-39022-2, as distributed in FLAb.

Target peptide (SARS-CoV-2 spike, HR2 region): PDVDLGDISGINAS

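Phage display of a naive human antibody library on the peptide gave the parent. The variants were designed computationally from a first round of random CDR variants and then made and measured. Several design methods are mixed in this list. AlphaSeq pools MATa yeast showing the antibodies with MATalpha yeast showing the peptide. After mating in shaken culture at 30 °C for 16 h, diploids were selected and their barcode pairs sequenced. Read counts were normalised to the haploid input and turned into Kd by a linear fit to BCL2-family pairs of known affinity, for each replicate. The assay was run in six technical replicates.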

Each scFv is VH, the linker GGGGSGGGGSGGGGS, VL, as in the parent Ab-14, and differs from it in the CDRs of the light chain only.
VH: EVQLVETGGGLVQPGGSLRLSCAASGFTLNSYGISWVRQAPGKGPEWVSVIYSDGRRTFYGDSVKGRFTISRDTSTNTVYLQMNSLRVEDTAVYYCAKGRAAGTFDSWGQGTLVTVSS
VL: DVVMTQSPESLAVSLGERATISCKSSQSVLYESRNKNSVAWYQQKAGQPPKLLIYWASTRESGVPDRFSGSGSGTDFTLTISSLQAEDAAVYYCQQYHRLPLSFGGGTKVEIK

Variants are written as CDR1, CDR2 and CDR3 of the light chain (limits as in the source). Parent: KSSQSVLYESRNKNSVA, WASTRES, QQYHRLPLS.
The Kd shown is the geometric mean over detected replicates; a lower Kd is a better binder.
A pair that was not seen in any replicate is written "nd"; this usually means weak binding, but a binder can also be missed.
The list is sorted by this average, lowest first, undetected variants last.
Values of this round are not directly comparable with the first-round values of the same sequences.
The authors' rule: three or more of the six replicates give a measured affinity, fewer mean a poor binder.
Background: pairings of all light chain designs with three empty control strains gave a value in 4% of cases (median 430 nM, 5th percentile 38 nM). Values in that range, when seen in few replicates, are hard to tell from nonspecific mating.

Kd,seen in,CDR-L1,CDR-L2,CDR-L3
310 pM,6 of 6,DFEQSWLYESRNKNSVA,GASTRES,QQYHRLPLS
360 pM,6 of 6,KQSQSVLYESRNKNNVA,DASTRES,QQYHRLPLS
540 pM,6 of 6,KLAQSWLYESRNKNSVA,EASTRES,QQYHRLPLS
650 pM,6 of 6,KLEQSELYESRNKNSVA,NASQRLS,QQYHRLPLS
660 pM,6 of 6,KLSQSVLYQSRNKNSVA,GASTRES,QQYHRLPLS
760 pM,6 of 6,KLSQSVPYESRNKNSVA,SASTRES,QQYHRLPLS
800 pM,6 of 6,KIQQSVQYESRNKNSVA,NASDRQS,QQYHRLPLS
830 pM,6 of 6,KLSQSVLYESRNWNSVA,NASTRLS,QQYHRLPLS
930 pM,6 of 6,KQSQSVLMESRNANSVA,DASTRES,QQYHRLPLS
980 pM,6 of 6,KLQQSVLYESRNKNSVA,SASQRES,QQYHRLPLS
1.0 nM,6 of 6,KISQSVLYEDRNKNSVA,NASTRMS,QQYHRLPLS
1.2 nM,6 of 6,KVSQSHLYESRNGNSVA,NASTREM,QQYHRLPLS
1.2 nM,6 of 6,KLSGSDLYESRNCNNVA,NASQREV,QQYHRLPLS
1.4 nM,6 of 6,KISQSVLYESRNKNSVA,MASTRES,QQYHVLPLS
1.4 nM,6 of 6,KFSQSDLYESRMKNSVA,NASTRES,QQYHRLPLS
1.5 nM,6 of 6,KSSQSVLYESRNKNSVA,EASTRES,QDYHRLPLS
2.1 nM,6 of 6,KSSQSVDYESRNKNSVA,NASTRES,QQYHRLPLS
2.4 nM,6 of 6,KLSQGQLYESRNKNQVA,SASTREM,QQYHRLPLS
3.0 nM,6 of 6,KLSQWVEMESRWKNSVA,SASQRNE,QQYHRLPLS
3.2 nM,6 of 6,LSSISYLYESPNKNSVA,EASTRMS,QQYHRLPLS
3.4 nM,6 of 6,HMSALTLQGMKHRNSVA,QMTTREK,QQYDHLPLS
3.4 nM,6 of 6,IMTGIIEEGSNNKNNIA,ENKERFQ,QQYWQLPLS
3.8 nM,6 of 6,KQSQLVGMESRNMNSVA,NASTREE,QQYHRLPLS
3.8 nM,6 of 6,KESQSWLYESRNKNSVA,NASTRES,QQYHRLPLS
4.2 nM,6 of 6,MVTQMAMTGMMSKRSVA,NAETRED,QQYHRLPLI
4.4 nM,6 of 6,SLMQSVLYESRNKNSVA,HASLREM,QQYHRLPLS
4.5 nM,6 of 6,KLSMVTGHMSMAKNNVA,EMVTREK,QQYNRLPLS
6.2 nM,6 of 6,TISQMTSLFSQSINNVA,EVSMRES,QQYDRLPLT
6.3 nM,6 of 6,KSPQSVLYESRDKYNVA,QASTRSS,QQYHRLPLS
6.4 nM,6 of 6,TISQLYNMGQFAINSVA,QASIRNA,QQYDRLPLI
6.9 nM,6 of 6,KSSQSVLDESRNKNSVA,WGSTRES,QQYHRLPLS
7.3 nM,6 of 6,KQSQSVLMESRNANSVA,DASTRES,QQYVRLPLS
8.5 nM,2 of 6,KSSQSWLYESREKNNVA,WASTRHS,QQYHRLPLS
15 nM,6 of 6,TISQMPSLFSQSINNVA,EVSTREP,QQYDRLPLI
17 nM,3 of 6,QFSNVNMQGNAQWANVA,EATYAFE,QQYARLPLQ
18 nM,6 of 6,MIAESVGYQSRNKNSVA,DNSTRES,QCYDRLPLS
23 nM,6 of 6,KISQTFNVGTKNTNSLA,EMNTRGF,QDYHRLPLS
30 nM,1 of 6,HLALRLSYGNGLNKAIA,DVQARSY,QQYARLPLL
32 nM,2 of 6,KSSQSYLYESFNKNSVA,GASTRNS,QQYHRLPLS
34 nM,6 of 6,KSSQSVGYESRNKNSVA,WASTREV,QQYARLPLF
45 nM,6 of 6,KSSQSVLYDSRNKNSVA,DASTRES,SQYHRLPLS
86 nM,5 of 6,KSQQSVLYESDNKNSVA,EASTRES,QQYHRYPLS
160 nM,3 of 6,TISQSTYWETFNKNNVA,QTSTREE,QDYDRLPLS
200 nM,3 of 6,KMSQSVLYESFNKNSVA,WASTRES,QLYHRLPLS
400 nM,1 of 6,HLYFPWQSGQDSMQNVA,NDSTLMT,QHYNRLPLS
660 nM,4 of 6,KVWQSWLYESRNKNSVA,GASTRES,QQYHRLPLI
740 nM,4 of 6,KVSEFMRGLMMRKDNIA,DNVTRQN,QQYDRLPLS
4.1 µM,2 of 6,KSSQSVLYESRNKNSVA,HASTRES,CQYHRLPLS
10 µM,1 of 6,MLSEVLHMLGVAKNSIA,DLVLRAN,QQYARLPLM
nd,0 of 6,MLSMMEQHMGDRMHNVA,DTNVAKM,QDYFRLPLM
nd,0 of 6,KSSQSVLYESRNKNSIA,WASTRES,QQYHRLHLS
nd,0 of 6,KLSMSMLMESRNKNSVA,ENSTREN,QHYHRLPLS
nd,0 of 6,AFTNSIFYGQRDDNSIA,HADELVK,QQYDRFPLA
nd,0 of 6,KSSQSVLYESCNKNSVA,WAMTRES,QQYHRLPLS

The opening 7 entries, copied out:

| CDR-L1 | CDR-L2 | CDR-L3 | Kd | seen in |
|---|---|---|---|---|
| DFEQSWLYESRNKNSVA | GASTRES | QQYHRLPLS | 310 pM | 6 of 6 |
| KQSQSVLYESRNKNNVA | DASTRES | QQYHRLPLS | 360 pM | 6 of 6 |
| KLAQSWLYESRNKNSVA | EASTRES | QQYHRLPLS | 540 pM | 6 of 6 |
| KLEQSELYESRNKNSVA | NASQRLS | QQYHRLPLS | 650 pM | 6 of 6 |
| KLSQSVLYQSRNKNSVA | GASTRES | QQYHRLPLS | 660 pM | 6 of 6 |
| KLSQSVPYESRNKNSVA | SASTRES | QQYHRLPLS | 760 pM | 6 of 6 |
| KIQQSVQYESRNKNSVA | NASDRQS | QQYHRLPLS | 800 pM | 6 of 6 |